# AlphaSeq binding of Ab-91 heavy chain variants to a spike HR2 peptide

Source: Engelhart et al. 2022 (doi:10.1038/s41597-022-01779-4), MIT Lincoln Laboratory and A-Alpha Bio; data file from the FLAb repository.

The target is the same throughout: PDVDLGDISGINAS, from the HR2 region of SARS-CoV-2 spike.

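The starting antibody came from a phage panning campaign against this peptide. AAYL51 was designed without a model: most single CDR substitutions and a random sample of double and triple ones. In AlphaSeq, yeast of one mating type display the scFv and yeast of the other type display the target. The frequency of each diploid, read from paired DNA barcodes, reflects how well the two displayed proteins bind. Read counts were normalised to the haploid input and turned into Kd by a linear fit to BCL2-family pairs of known affinity, for each replicate. There are three technical replicates.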

The variants keep the light chain, the linker and the frameworks of Ab-91 (scFv order VL, three GGGGS repeats, VH).
VL: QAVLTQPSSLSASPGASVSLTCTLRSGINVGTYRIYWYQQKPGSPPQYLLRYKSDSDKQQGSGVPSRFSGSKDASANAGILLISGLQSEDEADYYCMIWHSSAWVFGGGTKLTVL
VH: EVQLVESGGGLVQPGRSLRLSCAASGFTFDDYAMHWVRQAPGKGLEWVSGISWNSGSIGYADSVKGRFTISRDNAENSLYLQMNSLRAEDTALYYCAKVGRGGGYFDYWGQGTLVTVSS

Changes read parent residue, position, new residue, counted from the first residue of the VH shown.
This list gathers variants with a substitution at G56 (VH, numbered from residue 1).
Affinities are written as log10 Kd with Kd in nM; a lower number is a better binder.
Replicates are averaged; those with no signal do not enter the mean.
An entry "ND" has no value in the source: the pair was not observed among the diploids in that replicate. This suggests poor binding but is not conclusive.
As a blank, each scFv also met three strains without target: over library AAYL51, 21% of these pairings were detected, typically at 4.54 and seldom below 3.26.

With H35W/G56L/F106K the result was 5.07, 5.19, ND (mean 5.13).
With G56V/K65I/R101A the result was 1.03, 1.17, 0.48 (mean 0.89).
With G56V/R101L/G102E the result was ND, ND, ND.
With N54K/G56M/Y60H the result was 4.38, ND, 4.88 (mean 4.63).
With I51F/G56V/R101T the result was 5.36, ND, ND.
With G56K the result was ND, ND, ND.
With G56N/I58M/A61T the result was ND, ND, ND.
With G56Y/D62S/S63F the result was 1.91, 1.75, 0.88 (mean 1.51).
With G56I/Y60S/V64Y the result was ND, 5.99, ND.
With G56L/Y60R/A61F the result was ND, ND, ND.
With A33M/G56T/V99D the result was 4.15, ND, 3.76 (mean 3.96).
With S52M/G56V/V99L the result was 5.62, 5.12, 4.69 (mean 5.15).
With N54R/G56M/S63T the result was ND, ND, ND.
With S52N/G56F/Y105L the result was 4.54, 4.11, 5.36 (mean 4.67).
With D31Y/G56W/Y105E the result was 4.46, ND, 4.56 (mean 4.51).
With A33W/G56Q/G102L the result was ND, ND, ND.
With G56S/A61T/V99Y the result was 4.55, 5.99, 3.61 (mean 4.72).
With G56M/V64Y/K65V the result was 3.53, 3.59, 3.59 (mean 3.57).
With G56T/S63W the result was ND, ND, ND.
With G56A/R101H/G104L the result was ND, ND, ND.
With I51Q/G56P/A61K the result was ND, 5.58, ND.
With S52I/G56I the result was ND, ND, ND.
With G56D/G102H the result was 2.24, 2.29, 1.76 (mean 2.10).
With A33H/N54A/G56L the result was 4.17, ND, ND.
With G26T/G56F/S63L the result was 6.37, 5.09, ND (mean 5.73).
With D30K/G56N the result was 1.42, 1.48, 1.02 (mean 1.31).
With G50W/G56E the result was ND, ND, ND.
With G56N/S57T/S63M the result was 2.28, 2.05, 1.99 (mean 2.11).
With T28Y/N54K/G56H the result was ND, ND, ND.
With G26S/G56L/Y105M the result was 3.99, ND, ND.
With F29Y/G56N/V99D the result was ND, ND, ND.
With S52H/G56M the result was ND, ND, ND.
With S52E/G56Y the result was 5.37, 5.02, ND (mean 5.19).
With G26H/H35Q/G56D the result was 5.05, ND, ND.
With F27D/T28I/G56Q the result was 2.77, 3.02, 2.35 (mean 2.71).
With G26S/G56C/Y60T the result was 2.91, ND, ND.

Repeated from above, the 2 best binders with a signal in all replicates:

{"changes": "G56V/K65I/R101A", "log10 Kd, replicates": "1.03, 1.17, 0.48", "mean, log10 nM": "0.89"}
{"changes": "D30K/G56N", "log10 Kd, replicates": "1.42, 1.48, 1.02", "mean, log10 nM": "1.31"}